Drawing on ChEMBL document CHEMBL3085628, “Identification of CB1/CB2 ligands from Zanthoxylum bungeanum” (J Nat Prod, 2013), this text covers inhibition and Ratio IC50 for two molecules.

Amino acid sequences for entries named in this document (tags omitted).
UniProt P21554, whole entry: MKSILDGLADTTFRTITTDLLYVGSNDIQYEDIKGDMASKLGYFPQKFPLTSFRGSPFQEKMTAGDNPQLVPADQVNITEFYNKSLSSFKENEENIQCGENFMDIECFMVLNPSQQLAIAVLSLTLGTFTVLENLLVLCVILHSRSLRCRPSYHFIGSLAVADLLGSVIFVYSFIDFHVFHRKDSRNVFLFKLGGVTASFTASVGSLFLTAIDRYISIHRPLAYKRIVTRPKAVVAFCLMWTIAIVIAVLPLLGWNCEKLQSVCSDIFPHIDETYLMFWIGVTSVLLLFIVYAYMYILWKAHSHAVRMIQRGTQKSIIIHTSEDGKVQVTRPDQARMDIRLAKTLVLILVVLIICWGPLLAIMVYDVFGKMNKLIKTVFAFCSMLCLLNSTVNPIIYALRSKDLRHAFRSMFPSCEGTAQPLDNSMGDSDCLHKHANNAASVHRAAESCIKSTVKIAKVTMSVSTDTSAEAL
UniProt P34972, whole entry: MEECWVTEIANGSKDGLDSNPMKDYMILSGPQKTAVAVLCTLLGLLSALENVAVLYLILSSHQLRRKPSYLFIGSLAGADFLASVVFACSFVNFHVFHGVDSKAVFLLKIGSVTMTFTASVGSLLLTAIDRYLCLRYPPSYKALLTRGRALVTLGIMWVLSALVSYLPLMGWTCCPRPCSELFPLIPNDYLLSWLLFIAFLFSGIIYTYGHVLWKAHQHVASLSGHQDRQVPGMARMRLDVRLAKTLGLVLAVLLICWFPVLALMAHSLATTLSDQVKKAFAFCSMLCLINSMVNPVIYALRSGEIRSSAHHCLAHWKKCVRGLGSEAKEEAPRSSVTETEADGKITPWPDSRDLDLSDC

In assay [1] the target is Cannabinoid receptor 1 (Homo sapiens, UniProt P21554). Put plainly: Inhibition of human CB1 receptor internalization expressed in CHO cells assessed as inhibition of [3H]-Win55212-2 uptake preincubated for 1 hr followed by radioligand addition measured after 1 hr by liquid scintillation counting analysis relative to control. The format is cell-based. Also on record: concentration or dose not given beside the values. Particulars: concentration not given here. In outline:
(§1)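 CHO cells stably expressing human CB1 or CB2 grown 24 h at 2.0 × 10^5 cells/mL in DMEM/F12 with 10% FBS. They were preincubated 1 h with serial dilutions (top 5.0 μM for CB1, 10 μM for CB2; DMSO <0.1% final), then given 1 h 10 nM [3H]-Win 55,212-2 (CB1) or 2 nM [3H]-CP 55,940 (CB2). Cells were washed, NaOH-lysed and scintillation-counted. Uptake normalized to no-compound wells; sigmoid fit; mean ± SE, n = 6.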

For assay [2], the species on record is Homo sapiens. The experiment in a line: Selectivity ratio of IC50 for human CB1 receptor to IC50 for human CB2 receptor.
The target in assay [3] is Cannabinoid receptor 2 (Homo sapiens, UniProt P34972). The experiment in a line: Inhibition of human CB2 receptor internalization expressed in CHO cells assessed as inhibition of [3H]-CP55940 uptake preincubated for 1 hr followed by radioligand addition measured after 1 hr by liquid scintillation counting analysis relative to control. The settings on record: concentration not given here. Type of assay: cell-based. Also on record: concentration or dose not given beside the values. In outline: as §1

Usually inhibition stands for the percentage by which the read-out fell short of the control. Take `C/C=C/C=C/C=C/CC/C=C/C(=O)NCC(C)(C)O`: the inhibition was 40% in assay [1] and 43% in assay [3]. In assay [2], the Ratio IC50 was found to be 0.07.

For `C/C=C/C=C/C=C\CC/C=C/C(=O)NCC(C)(C)O`, the inhibition in assay [1] and in assay [3] was 29% each time. Also, in assay [2], the Ratio IC50 is 1250.
